Entries after “also recorded” stand apart in the source; their conditions may differ.
Experiments:
[1] = system: panel of breast cancer cell lines; conditions: prior treatment with erlotinib (24 hr) then doxorubicin, both 10 μM
BT-20 cells = system: BT-20 cells
Method: 1×10^6 cells were seeded in a 10 cm dish 24 hr prior to the experiment. […] Following the treatment time course, cells were washed in PBS, trypsinized, and fixed in 4% paraformaldehyde (PFA) in PBS for 15 min at room temperature (RT), then resuspended in ice cold methanol and incubated overnight at −20° C. Cells were then washed twice in PBS+0.1% Tween and stained with antibodies directed against cleaved forms of caspase-3 and PARP (BD PharMingen). […] Data reported are always percent cleaved-caspase-3/cleaved-PARP double positive cells.
Following the treatment time course, cells were washed, trypsinized, fixed in 4% paraformaldehyde for 15 min at room temperature, resuspended in ice-cold methanol, and incubated overnight at −20° C. Cells were then washed twice in PBS-Tween and stained with antibodies against cleaved caspase-3 and poly(ADP-ribose) polymerase (PARP). Secondary Alexa-conjugated anti-bodies were used for visualization in a BD FacsCaliber flow cytometer.

## C#Cc1cccc(Nc2ncnc3cc(OCCOC)c(OCCOC)cc23)c1 [erlotinib]
[1]
  intracellular doxorubicin concentration: did not alter the intracellular doxorubicin concentration
BT-20 cells
  cell killing relative to doxorubicin or erlotinib alone: not enhanced
BT-20 cells; co-administered with doxorubicin instead of time-staggered doses, 8 hr
  apoptosis on coadministration of higher erlotinib concentrations: without observing increased apoptosis; also recorded: does not enhance sensitivity to doxorubicin

Reference: patent US9320750B2, “Compositions and methods of treatment of drug resistant cancers” (priority 2012, dated 2016)
